From the C3SDB collision cross section collection

Assays:
[1] = [M]+; instrument: DT; stepped-field
[2] = [M+H]+; instrument: TW; calibrated with polyalanine and drug standards

SMILES	collision cross section (N2) [1]	collision cross section (N2) [2]
CCC[N+](CCC)(CCC)CCC [TAA3]	144 Å²	
COc1c2ccccc2nc2occc12 [DICTAMNINE]		135.2 Å²
